{
  "source": "patent US11433068B2",
  "about": "“Treatment of cancers having alterations within the SWI/SNF chromatin remodeling complex” (THE GENERAL HOSPITAL CORPORATION, priority 2016, dated 2022)",
  "tested_on": "H3K27",
  "experiment": "Histone western blot of cells treated with EZH2 inhibitors (FIGS. 6A, 6B)",
  "format": "cell-based",
  "settings": "UACC257 cell line",
  "from_the_text": "The G9a and EZH2 methyltransferases are known to target H3K9 and H3K27, respectively.",
  "data": [
    {"smiles": "CCN(c1cc(-c2ccc(CN3CCOCC3)cc2)cc(C(=O)NCc2c(C)cc(C)[nH]c2=O)c1C)C1CCOCC1", "note": "[EPZ6438]", "values": [
      {"measurement": "methylation marks at H3K27 (histone western blot)", "value": "selective and specific decrease in the methylation marks"}
    ]}
  ]
}
